# From US20150218516A1, “COMPOSITIONS AND METHODS FOR ENHANCING IMMUNE RESPONSES MEDIATED BY ANTIGEN-PRESENTING CELLS” (The Board of Regents of the University of Nebraska, priority 2007, published 2015)
# Experiments:
# MUC1 epitope peptide = test: Serum antibody response to MUC1 epitope peptide in immunized mice (RIA); assay type: in vivo, C57B16 and Balb/c mice; conditions: 100 μg i.p. with RIBI adjuvant, three immunizations, sera at 6 weeks
# Source text: The strains of mice used for this example were inbred females 6 to 12 week old C57B16(H-2^b) and Balb/c (H-2^d), which were obtained from Jackson labs (Bar Harbor, Me.). […] The MUC1 peptide selected for these studies contained a motif that may bind to the H-2K^b molecule of the C57B16 mice; therefore, a strain of mouse that lacked this class I molecule binding motif (Balb/c) was also studied to determine the relative contribution of the class I binding motif to the antigen presentation properties of these peptides.
# Preimmune sera were obtained from mice, which were subsequently immunized intraperitoneally with 100 μg of the indicated peptide with RIBI adjuvant (MPL+TDM+CWS) (Sigma Immunochemicals). Animals were boosted twice at two week intervals using the same injection procedure. Sera were obtained following three immunizations (at 6 weeks).
# For radioimmunoassay (RIA), anti-peptide antibodies were determined, before and at different time points after immunization, in 96-well microtiter plates (Dynatech Laboratories, Inc.). Plates were coated with 50 μl of a 100 μg/ml appropriate peptide in phosphate-buffered saline (PBS) pH 7.4 solution overnight at 4° C. […] Anti-peptide antibody titers were determined using serial dilutions of sera. […] After washing, specific radioactivity was recorded in a gamma counter (1272 CliniGamma, LKB). […]
# BEAS-2B epithelial cells = test: In vitro cytotoxicity of T lymphocytes cultured with peptide-pulsed dendritic cells against BEAS-2B; conditions: cord blood derived T lymphocytes; cells do not express PSMA
# Procedure: (§1) An exemplary in vitro cytotoxicity assay comprises the following steps. Antigen presenting cells, such as dendritic cells, were obtained from bone marrow or blood. Dendritic cells were preferentially differentiated in culture through the addition of IL-4, GM-CSF, and TNFα for 7-10 days. Dendritic cells were then pulsed with peptides for 18 hours. MNCs were also isolated from spleens or blood (e.g., cord or peripheral) and cultured in IL-2 and GM-CSF for 7-10 days for enhanced lymphocyte proliferation. The pulsed dendritic cells were then co-cultured with the lymphocyte-enriched MNCs at a 1:10 ratio for 4 days. Lymphocyte-enriched MNC effector cells were then co-cultured with tumor target cells labeled with the bioactive fluorescent dye Calcein AM for 4 hours. Lysed cells were detected by photometrically measuring the released fluorescent dye.
# (§2) Certain prostate carcinomas express prostate-specific membrane antigen (PSMA). […] The fusion peptides were administered to APCs which were subsequently presented to a lymphocyte-enriched population from cord blood as described hereinabove in Example 6. […] In vitro cytotoxicity against the human prostate cancer cell line LNCaP was then assessed using the bioactive fluorescent dye calcein AM (FIG. 11D).
# [1] = test system: P815S (HBsAg transfectant) target cells; test: HBsAg-specific CTL response of immunized mice, 51Cr-release cytotoxicity assay; assay type: in vivo, BALB/c mice; conditions: s.c. in PBS
# Procedure: Groups of six to eight BALB/c mice were given bilateral s.c. injections in the inguinal area with (100 al each side) of a PBS solution containing 50-100 μg of the peptides. Booster injections were given s.c. in the inguinal region at 21-day intervals. Sera for Ab analysis were obtained by retro-orbital bleeds of mice under CO2 narcosis.
# Three weeks after secondary) (2° immunization and two weeks after tertiary)(3° immunization, two to three mice from each experimental group were sacrificed by cervical dislocation and their spleens removed aseptically. Pooled splenic single-cell suspensions were prepared in RPMI-1640 medium (Sigma, St. Louis, Mo.) containing 10% FBS (Hyclone, Salt Lake City, Utah) and the following supplements: 10 mM HEPES buffer, 50 μM 2-ME, 2 mM L-glutamine, 50 μg/ml gentamicin sulfate, 100 Um′ penicillin, and 50 μg/ml streptomycin (all supplements from Sigma). This supplemented complete medium is designated RP10-SC. For culture, 75×10^6 pooled spleen cells in 5 ml of RP10-SC were pipetted into a 25 cm^2 T-flask (Corning). Next, 5 ml of RP 10-SC containing 150 nM of synthetic, L^d MHC class I-restricted peptide, […] (SEQ ID NO:12) were added to the flask. The flasks were incubated undisturbed in an upright position at 37° C. in 5% CO2. After 4 days of incubation, the cells were recovered from the T-flasks, washed once by centrifugation in fresh RP10-SC, resuspended in 5 ml RP10-SC, counted, and adjusted to 5×10^6 viable cells/ml.
# The specific cell target used for measuring CTL activity was P815S, a transfectant cell line of P815 (H-2^d) expressing the HBsAg (14). P815S was grown in RP10-SC medium containing 400 μg/ml geneticin disulfate (G418, Sigma). The parental H-2^d mastocytoma cell line, P815 (ATTC #TIB64) grown in RP10-SC medium, was used as a non-specific target for CTL assays to measure % non-specific lysis.
# The target cells, either P815S or P815, were washed 2 times in RP10-SC. For labeling, 5×10^6 target cells were mixed with 250 μCi ^51Cr-sodium chromate[400-1200 Ci (14.8-44.4 TBq)]/[…]; NEN Dupont, Boston, Mass.) in a 1.0 ml volume in a 50 ml conical tube and incubated in a 37° C. water bath for 90 mins. After incubation, the labeled cells were washed 3 times by centrifugation using 15 ml volumes of fresh RP10-SC and allowed to stand at room temperature for 30 mins. The pelleted cells were resuspended in RP10-SC at 1×10^6 cells/ml.
# The recovered splenic effector cells at 5×10^6 cells/ml were serially diluted in triplicate in wells of round-bottom 96 well plates (Corning, 25850) in a total volume of 100 al/well and using RP10-SC as the diluent. […] The amount of ^51Cr radioactivity in the supernatant fractions was measured using a Wallac 1470 Wizard gamma counter (Turku, Finland).
# human umbilical artery = test: Smooth muscle contraction of human umbilical artery; assay type: cell-based; conditions: −log EC50 (M), mean ± SE, n=3
# Procedure: Statistical analysis of the values obtained from pharmacologic assays was performed using one-way analysis of variance (ANOVA).
# LNCaP cells = test system: LNCaP cells
# Procedure: as §1, §2
# [2] = test system: A-375 cell line (melanoma); assay type: cell-based, human
# Procedure: The tumor peptide antigen tyrosinase is expressed on more than 70% of human melanoma cells that are human leukocyte antigen (HLA) A2 positive. […] The dendritic cells, presumably expressing the tyrosinase epitope, were then cultured with a lymphocyte-enriched cell population which was then cultured with melanoma cells to determine melanoma cell killing using a cytotoxic T lymphocyte assay.
# Caki-1 cells = test: In vitro cytotoxicity of T lymphocytes cultured with peptide-pulsed dendritic cells against Caki-1; assay type: cell-based, human; conditions: cord blood-derived T lymphocytes cultured with dendritic cells exposed to the peptide
smiles,measurement,setting,value
CSCC[C@H](NC(=O)[C@@H]1CCCN1C(=O)[C@H](CCCCN)NC(=O)[C@H](Cc1ccccc1)NC(=O)[C@H](CO)NC(=O)[C@@H](N)Cc1ccc(O)cc1)C(=O)N1CCC[C@H]1C(=O)N[C@@H](CC(C)C)C(=O)N[C@H](C)C(=O)N[C@@H](CCCNC(=N)N)C(=O)O,antibody response (in words),MUC1 epitope peptide,no appreciable increase in antibody response
same,cytotoxicity against BEAS-2B (in words),BEAS-2B epithelial cells,not cytotoxic
same,% Specific Lysis,"[1]; Effector:Target 6.25:1, boost day 21, spleen cells day 42",1%
same,% Specific Lysis,"[1]; Effector:Target 12.5:1, boost day 21, spleen cells day 42",0%
same,% Specific Lysis,"[1]; Effector:Target 25:1, boost day 21, spleen cells day 42",2%
same,% Specific Lysis,"[1]; Effector:Target 50:1, boost day 21, spleen cells day 42, restimulated 4 days with S28-39",1%
same,pD2 ± SE,human umbilical artery,6.99 ± 0.22
same,cytotoxicity against LNCaP (in words),LNCaP cells,did not exhibit significant cytotoxicity
same,cytotoxicity against A-375 (in words),[2],not cytotoxic
same,cytotoxicity against tyrosinase-negative Caki-1 (in words),Caki-1 cells,incapable of killing
